From paper PMC3961306, “Comparison of the Cancer Gene Targeting and Biochemical Selectivities of All Targeted Kinase Inhibitors Approved for Clinical Use” (PLoS ONE, 2014)

Legend:
Test in all cases: Kinase profiling in a biochemical assay panel (mobility shift assays and ELISA), %-inhibition at 1 μM; selectivity entropy
[1] = target: panel of more than 300 wild-type and mutant kinases (313 kinase panel) (Homo sapiens, UniProt P04626)
[2] = target: panel of more than 300 wild-type and mutant kinases (313 kinase panel) (Homo sapiens, UniProt Q13976)
[3] = target: panel of more than 300 wild-type and mutant kinases (313 kinase panel) (Homo sapiens, UniProt P53355); conditions: 1 µM
[4] = target: panel of more than 300 wild-type and mutant kinases (313 kinase panel) (Homo sapiens, UniProt P42684); conditions: 1 µM
[5] = target: panel of more than 300 wild-type and mutant kinases (313 kinase panel) (Homo sapiens, UniProt P24941); conditions: 1 µM
[6] = target: panel of more than 300 wild-type and mutant kinases (313 kinase panel) (Homo sapiens, UniProt P29317); conditions: 1 µM
[7] = target: panel of more than 300 wild-type and mutant kinases (313 kinase panel) (Homo sapiens, UniProt Q9NYA1)
[8] = target: panel of more than 300 wild-type and mutant kinases (313 kinase panel) (Homo sapiens, UniProt P43403); conditions: 1 µM
[9] = target: panel of more than 300 wild-type and mutant kinases (313 kinase panel) (Homo sapiens, UniProt P22455); conditions: 1 µM
[10] = target: panel of more than 300 wild-type and mutant kinases (313 kinase panel) (Homo sapiens, UniProt Q9BYP7); conditions: 1 µM
[11] = target: panel of more than 300 wild-type and mutant kinases (313 kinase panel) (Homo sapiens, UniProt Q05397); conditions: 1 µM
[12] = target: panel of more than 300 wild-type and mutant kinases (313 kinase panel) (Homo sapiens, UniProt P45985); conditions: 1 µM
[13] = target: panel of more than 300 wild-type and mutant kinases (313 kinase panel) (Homo sapiens, UniProt Q12851); conditions: 1 µM
[14] = target: panel of more than 300 wild-type and mutant kinases (313 kinase panel) (Homo sapiens, UniProt P19525); conditions: 1 µM
[15] = target: panel of more than 300 wild-type and mutant kinases (313 kinase panel) (Homo sapiens, UniProt Q9H0K1); conditions: 1 µM
[16] = target: panel of more than 300 wild-type and mutant kinases (313 kinase panel) (Homo sapiens, UniProt Q16654); conditions: 1 µM
[17] = target: panel of more than 300 wild-type and mutant kinases (313 kinase panel) (Homo sapiens, UniProt P78368); conditions: 1 µM
[18] = target: panel of more than 300 wild-type and mutant kinases (313 kinase panel) (Homo sapiens, UniProt P49841); conditions: 1 µM
[19] = target: panel of more than 300 wild-type and mutant kinases (313 kinase panel) (Homo sapiens, UniProt O75116); conditions: 1 µM
[20] = target: panel of more than 300 wild-type and mutant kinases (313 kinase panel) (Homo sapiens, UniProt P00540)
[21] = target: panel of more than 300 wild-type and mutant kinases (313 kinase panel) (Homo sapiens, UniProt P17612); conditions: 1 µM
[22] = target: panel of more than 300 wild-type and mutant kinases (313 kinase panel) (Homo sapiens, UniProt Q9NQU5); conditions: 1 µM
[23] = target: panel of more than 300 wild-type and mutant kinases (313 kinase panel) (Homo sapiens, UniProt Q8IWQ3); conditions: 1 µM

Row | Compound | %-inhibition of DAPK1 [3] [%] | %-inhibition, ARG [4] [%] | %-inhibition, CDK2/CycA2 [5] [%] | %-inhibition, CDK2/CycE1 [5] [%] | %-inhibition of EPHA2 [6] [%] | %-inhibition of ZAP70 [8] [%] | %-inhibition of FGFR4 [9] [%] | %-inhibition of WNK3 [10] [%] | %-inhibition of FAK [11] [%] | %-inhibition of MAP2K4 [12] [%] | %-inhibition of MAP4K2 [13] [%] | %-inhibition of PKR [14] [%] | %-inhibition of QIK [15] [%] | %-inhibition of PDHK4 [16] [%] | %-inhibition, CK1γ2 [17] [%] | %-inhibition of GSK3β [18] [%] | %-inhibition of ROCK2 [19] [%] | %-inhibition of PKACα [21] [%] | %-inhibition of PAK6 [22] [%] | %-inhibition, BRSK2 [23] [%] | further results
1 | CNC(=O)c1ccccc1Sc1ccc2c(/C=C/c3ccccn3)n[nH]c2c1 [axitinib] |  |  |  |  |  |  |  |  |  |  |  |  |  |  |  |  |  |  |  |  | %-inhibition of HER2 ([1]; kinase HER2, compound at 1 μM): -5%; %-inhibition of PGK ([2]; kinase PGK, 1 μM): -3.22%
2 | COc1cc2ncnc(Nc3ccc(F)c(Cl)c3)c2cc1OCCCN1CCOCC1 [gefitinib] | 7 | 39 | 5 | -5 | 19 | 5.67 | 3.4 | -5.51 | 28 | -3.57 | 6.66 | 8.43 | 64 | -2.83 | 26 | -6 | 3.22 | 5.52 | 3 | 8 | %-inhibition of SPHK1 ([7]; kinase SPHK1, 1 μM): -15%; %-inhibition of MOS ([20]; kinase MOS, 1 μM): 0%
3 | C[C@@H]1CCN(C(=O)CC#N)C[C@@H]1N(C)c1ncnc2[nH]ccc12 [tofacitinib] | -3 | 1.17 | -5.49 | -8 | -1.38 | 0.475 | 3 | -8 | -5.36 | -1.89 | 1.58 | -8 | 10 | -3.33 | -3.77 | 1.1 | 41 | 8 | -3 | -0.511 | %-inhibition of SPHK1 ([7]; 1 µM): -8%; %-inhibition of HER2 ([1]; 1 µM): -0.179%; %-inhibition of PGK ([2]; 1 µM): 4%; %-inhibition of MOS ([20]; 1 µM): 4%
